Key:
[1] = target: Acetylcholinesterase (Electrophorus electricus) (UniProt O42275); conditions: at 2 mg/mL
[2] = target: Cholinesterase (Equus caballus) (UniProt P81908); conditions: at 2 mg/mL
[3] = target: Cholinesterase (Equus caballus) (UniProt P81908); conditions: 10 uM

Protein sequences, listed by entry. Tags and fused reporters are not part of them. Lines headed by an entry give the natural chain unless they say otherwise; changes in a name come on top.
UniProt O42275: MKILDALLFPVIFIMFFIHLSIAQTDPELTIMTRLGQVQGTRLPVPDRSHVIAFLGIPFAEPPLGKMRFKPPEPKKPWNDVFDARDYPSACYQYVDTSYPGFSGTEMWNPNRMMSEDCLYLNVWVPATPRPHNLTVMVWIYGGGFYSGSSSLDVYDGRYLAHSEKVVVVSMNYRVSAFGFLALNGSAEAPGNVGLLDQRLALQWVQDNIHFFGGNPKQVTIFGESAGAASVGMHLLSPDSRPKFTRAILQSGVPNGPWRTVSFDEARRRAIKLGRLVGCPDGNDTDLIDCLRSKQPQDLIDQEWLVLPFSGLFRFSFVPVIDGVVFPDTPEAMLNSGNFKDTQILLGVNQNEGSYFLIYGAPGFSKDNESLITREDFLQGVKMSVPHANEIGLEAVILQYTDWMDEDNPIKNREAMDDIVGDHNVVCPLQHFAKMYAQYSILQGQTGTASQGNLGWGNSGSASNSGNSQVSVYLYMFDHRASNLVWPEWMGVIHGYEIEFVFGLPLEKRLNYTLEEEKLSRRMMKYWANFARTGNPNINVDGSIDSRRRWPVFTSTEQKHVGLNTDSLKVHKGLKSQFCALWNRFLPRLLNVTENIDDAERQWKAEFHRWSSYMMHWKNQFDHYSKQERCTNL
UniProt P81908, whole entry: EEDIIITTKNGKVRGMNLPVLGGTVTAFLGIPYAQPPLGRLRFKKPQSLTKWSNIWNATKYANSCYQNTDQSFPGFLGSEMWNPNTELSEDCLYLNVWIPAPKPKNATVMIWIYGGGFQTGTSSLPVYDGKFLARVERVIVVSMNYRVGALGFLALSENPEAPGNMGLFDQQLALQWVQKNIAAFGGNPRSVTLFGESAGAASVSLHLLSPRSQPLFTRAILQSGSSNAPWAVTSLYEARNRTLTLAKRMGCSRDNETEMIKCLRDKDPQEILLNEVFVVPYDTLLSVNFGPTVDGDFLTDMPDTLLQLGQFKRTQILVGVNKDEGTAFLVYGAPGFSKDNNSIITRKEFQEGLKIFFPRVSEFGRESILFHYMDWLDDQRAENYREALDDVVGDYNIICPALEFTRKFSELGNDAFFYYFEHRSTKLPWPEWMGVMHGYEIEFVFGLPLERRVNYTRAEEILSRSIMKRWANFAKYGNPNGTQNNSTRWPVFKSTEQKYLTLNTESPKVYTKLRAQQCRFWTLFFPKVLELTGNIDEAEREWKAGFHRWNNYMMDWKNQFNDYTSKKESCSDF

COc1cc2c3cc1Oc1c(OC)c(OC)cc4c1[C@@H](Cc1ccc(OC(=O)c5ccc([N+](=O)[O-])cc5)c(c1)Oc1ccc(cc1)C[C@@H]3N(C)CC2)N(C)CC4 [E6 BERBAMINE]
inhibition [1]: -0.39%

C[C@@H]1OC(=O)[C@H]2C[C@H]3CCCC[C@@H]3[C@@H](/C=C/[C@H]3CCC[C@H](C)N3C)[C@@H]12 [HIMBACINE]
inhibition [2]: 30.1% | inhibition [3]: 30.1%

CC[C@H]1CN2CCc3c([nH]c4ccccc34)[C@H]2C[C@@H]1/C(=C\OC)C(=O)OC [HIRSUTINE]
inhibition [1]: 9.09%

OC1c2ccccc2N=C2CCCN21 (configuration not stated) [PEGANOLE]
inhibition [1]: 39.3%

C[C@@H]1CC[C@H]2[C@H](C)[C@H]3CC[C@@]4(O)[C@@H]5CC(=O)[C@H]6CC(=O)CC[C@]6(C)[C@H]5C[C@H]4[C@@H]3CN2C1 [SEVEDINDIONE]
inhibition [1]: 22.1%

O[C@H]1CCN2Cc3ccccc3N=C12 [VASICINE]
inhibition [1]: 30.1%
